SMILES strings stand for the structures.

The chains behind the UniProt entries cited, without tags or fusion partners. Where a name states a change or a piece, a line headed by the entry shows the natural chain unless it says otherwise.
UniProt P09619, whole entry: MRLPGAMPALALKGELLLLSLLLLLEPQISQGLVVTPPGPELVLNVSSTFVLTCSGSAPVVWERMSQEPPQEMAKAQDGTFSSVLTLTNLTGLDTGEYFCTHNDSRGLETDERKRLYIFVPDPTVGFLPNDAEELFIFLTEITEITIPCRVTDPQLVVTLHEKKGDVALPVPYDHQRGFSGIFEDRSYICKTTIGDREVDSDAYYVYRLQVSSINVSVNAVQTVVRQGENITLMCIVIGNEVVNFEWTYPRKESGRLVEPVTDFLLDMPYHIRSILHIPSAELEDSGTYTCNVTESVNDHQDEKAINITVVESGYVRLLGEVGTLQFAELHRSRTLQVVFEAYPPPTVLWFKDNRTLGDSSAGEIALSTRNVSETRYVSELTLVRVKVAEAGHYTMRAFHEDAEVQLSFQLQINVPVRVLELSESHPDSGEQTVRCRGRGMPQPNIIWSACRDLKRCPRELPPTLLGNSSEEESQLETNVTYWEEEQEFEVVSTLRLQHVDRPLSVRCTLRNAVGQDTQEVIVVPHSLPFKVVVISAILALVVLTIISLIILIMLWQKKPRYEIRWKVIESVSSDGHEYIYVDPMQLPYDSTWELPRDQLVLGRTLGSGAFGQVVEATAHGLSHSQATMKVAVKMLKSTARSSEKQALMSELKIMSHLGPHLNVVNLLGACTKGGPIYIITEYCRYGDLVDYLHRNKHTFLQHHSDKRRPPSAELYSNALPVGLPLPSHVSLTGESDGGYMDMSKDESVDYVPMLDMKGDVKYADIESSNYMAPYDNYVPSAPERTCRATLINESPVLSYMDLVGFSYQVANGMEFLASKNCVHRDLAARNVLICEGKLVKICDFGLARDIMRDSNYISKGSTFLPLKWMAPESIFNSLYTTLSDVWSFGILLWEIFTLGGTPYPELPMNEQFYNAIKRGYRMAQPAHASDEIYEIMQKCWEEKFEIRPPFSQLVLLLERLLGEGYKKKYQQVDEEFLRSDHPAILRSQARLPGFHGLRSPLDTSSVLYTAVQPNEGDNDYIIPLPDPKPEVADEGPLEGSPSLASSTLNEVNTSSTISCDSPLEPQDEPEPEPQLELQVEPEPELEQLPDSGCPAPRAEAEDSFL
UniProt P16234: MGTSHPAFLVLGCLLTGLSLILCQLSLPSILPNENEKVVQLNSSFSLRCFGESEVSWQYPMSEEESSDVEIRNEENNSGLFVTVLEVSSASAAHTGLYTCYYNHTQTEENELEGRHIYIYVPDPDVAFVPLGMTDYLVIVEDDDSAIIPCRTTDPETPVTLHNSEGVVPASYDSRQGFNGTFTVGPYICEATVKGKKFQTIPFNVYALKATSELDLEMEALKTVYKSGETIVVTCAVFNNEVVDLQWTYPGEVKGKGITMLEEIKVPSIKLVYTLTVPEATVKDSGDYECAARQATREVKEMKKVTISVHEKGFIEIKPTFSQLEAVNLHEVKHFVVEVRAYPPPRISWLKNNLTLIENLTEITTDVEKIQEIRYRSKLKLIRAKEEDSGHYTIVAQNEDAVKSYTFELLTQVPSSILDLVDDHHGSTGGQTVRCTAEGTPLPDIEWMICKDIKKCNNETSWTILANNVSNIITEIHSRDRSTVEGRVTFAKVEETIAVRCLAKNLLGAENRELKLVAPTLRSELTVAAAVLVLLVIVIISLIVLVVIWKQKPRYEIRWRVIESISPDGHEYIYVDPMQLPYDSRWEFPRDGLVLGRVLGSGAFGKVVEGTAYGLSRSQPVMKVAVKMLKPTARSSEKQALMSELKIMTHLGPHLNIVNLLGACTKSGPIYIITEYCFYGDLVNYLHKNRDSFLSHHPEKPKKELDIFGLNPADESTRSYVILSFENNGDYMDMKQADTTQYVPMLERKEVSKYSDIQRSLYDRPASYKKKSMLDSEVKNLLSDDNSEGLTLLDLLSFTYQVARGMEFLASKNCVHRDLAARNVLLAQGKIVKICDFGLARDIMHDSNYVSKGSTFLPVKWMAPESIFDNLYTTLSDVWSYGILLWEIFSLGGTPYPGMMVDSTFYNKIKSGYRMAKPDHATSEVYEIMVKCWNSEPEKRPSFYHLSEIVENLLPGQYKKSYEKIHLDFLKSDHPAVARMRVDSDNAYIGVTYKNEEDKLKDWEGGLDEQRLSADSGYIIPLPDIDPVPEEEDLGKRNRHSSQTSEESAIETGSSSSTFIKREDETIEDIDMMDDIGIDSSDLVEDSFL

The experiment has as its target Platelet-derived growth factor receptor (Homo sapiens, UniProt P09619+P16234). Nature of the experiment: Concentration required for 50% inhibition against autophosphorylation of Platelet-derived growth factor receptor beta in intact cells using a two site ELISA. The format is cell-based.

Regarding `COc1cc2ncnc(N3CCN(C(=O)Nc4ccc(Cl)cc4)CC3)c2cc1OC`, the IC50 came out at 1100 nM. In other words, the single-digit micromolar range.

(Values after ChEMBL document CHEMBL1136005 (J Med Chem, 2002).)
